# According to PubChem BioAssay AID651725 (National Center for Advancing Translational Sciences (NCATS), 2012):
# Amino acid sequences for entries named in this document (tags omitted).
# UniProt Q15475, whole entry: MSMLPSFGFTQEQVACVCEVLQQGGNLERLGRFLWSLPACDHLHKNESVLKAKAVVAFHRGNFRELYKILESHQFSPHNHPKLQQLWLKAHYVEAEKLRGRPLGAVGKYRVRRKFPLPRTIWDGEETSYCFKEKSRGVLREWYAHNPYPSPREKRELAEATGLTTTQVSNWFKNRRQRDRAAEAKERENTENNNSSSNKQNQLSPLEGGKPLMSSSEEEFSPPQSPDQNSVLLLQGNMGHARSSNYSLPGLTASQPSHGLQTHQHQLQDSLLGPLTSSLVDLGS
# This is a selection; strong and weak results do not stand in their true shares. Calls of active or inactive are those of the source. No stated cut-off is given here; in the data, active means activity change below about -65%; inconclusive means mostly about -30% to -63%; inactive means weaker than that.
# Biological target: Homeobox protein SIX1 (Homo sapiens) + Protein phosphatase EYA2 (Homo sapiens) (UniProt Q15475+O00167)
# Assay: qHTS Assay for Inhibitors of the Six1/Eya2 Interaction
# Details: AlphaScreen GST-Six1/His-Eya2 binding, biochemical; hits give low values
# Source text: Its expression is low or undetectable in normal adult breast tissue but the gene is over-expressed in 50% of primary breast tumors and 90% of metastatic lesions. […] Similar to Six1, Eya2 is also not expressed in most normal adult tissues, but is reexpressed in cancers. The Six1-Eya interaction is essential for proliferation during embryonic development, and both Six1 and Eya2 have been independently implicated in the same types of cancer. Because Six1 and Eya2 are embryonic genes with little expression in adult tissues, inhibitors of their expression/activity are likely to have limited side effects. Our goal is to identify inhibitors of the Six1/Eya interaction for potential cancer therapy. To this end, we have developed a homogenous AlphaScreen assay targeting the Six1/Eya interaction. We performed a large scale HTS of the Molecular Libraries Small Molecule Repository (MLSMR) to identify inhibitors of the Six1/Eya interaction as potential anti-cancer therapeutics. Compounds identified can also be used as chemical probes to better understand the biological functions of Six1 and Eya. […]
# The first step of the 5 uL AlphaScreen assay is to dispense assay buffer (50 mM Tris, pH 8.0, 300 mM NaCl, 0.05% BSA, 0.02% Tween 20, 1 mM TCEP) into a Greiner 1536 white solid bottom microtiter plate (789175-F). […] The plate is read using a Perkin Elmer Envision using an AlphaScreen protocol.
# On the % scale 0 is the no-effect control and ±100 the full control effect.
row,SMILES,activity change
1,CCC(=O)N(c1ccccc1)C1(COC)CCN(CCn2nnn(CC)c2=O)CC1,inactive: 1.95%
2,CCC(=O)N(c1ccccc1)C1(COC)CCN(CCc2cccs2)CC1,inactive: -1.47%
